Measured values from ChEMBL document CHEMBL1148372 (J Med Chem, 2004).

The chains behind the UniProt entries cited, without tags or fusion partners.
UniProt P61169, whole entry: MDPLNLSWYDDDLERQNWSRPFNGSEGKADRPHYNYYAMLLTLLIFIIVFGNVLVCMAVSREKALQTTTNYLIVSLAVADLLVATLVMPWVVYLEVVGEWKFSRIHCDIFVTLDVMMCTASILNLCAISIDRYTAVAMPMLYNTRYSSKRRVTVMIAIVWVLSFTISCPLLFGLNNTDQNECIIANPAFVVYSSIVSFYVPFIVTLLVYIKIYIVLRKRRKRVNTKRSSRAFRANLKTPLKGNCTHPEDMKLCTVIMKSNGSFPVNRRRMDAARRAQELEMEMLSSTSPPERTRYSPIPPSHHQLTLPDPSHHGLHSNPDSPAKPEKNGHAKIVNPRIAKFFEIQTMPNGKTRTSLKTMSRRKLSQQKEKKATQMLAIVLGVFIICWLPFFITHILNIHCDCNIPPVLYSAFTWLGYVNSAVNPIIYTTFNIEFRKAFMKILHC

Molecular target: D(2) dopamine receptor (Rattus norvegicus, UniProt P61169)
Assay: In vitro effective concentration tested on HEK293 cells co-transfected with rat Dopamine receptor D2 using FLIPR assay
Type: cell-based

`CN1CCc2cccc3c2[C@H]1Cc1ccc(O)c(O)c1-3` [APOMORPHINE] was tested, and the EC50 was 0.4 nM.
